These are literature values, as cited in publication PMC3087300 (Bioorganic & medicinal chemistry, 2009).

Amino acid sequences for entries named in this document (tags omitted). Residues count along the entry.
UniProt P07288, 25-261: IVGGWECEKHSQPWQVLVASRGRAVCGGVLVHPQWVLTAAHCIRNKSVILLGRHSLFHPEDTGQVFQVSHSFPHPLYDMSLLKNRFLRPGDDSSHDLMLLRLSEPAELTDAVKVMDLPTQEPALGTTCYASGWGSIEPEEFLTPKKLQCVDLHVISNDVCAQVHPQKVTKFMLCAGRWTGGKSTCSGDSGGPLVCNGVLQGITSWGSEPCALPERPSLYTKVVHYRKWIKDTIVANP

Broadly, the Ki is the dissociation constant of the complex between target and ligand, obtained from inhibition or displacement.

This data set has as its target PSA (Homo sapiens, UniProt P07288). The conditions noted are these: read-out: Ki for PSA; parent boronic acid, previous report; cited from earlier work.

Take “Cbz-Ser-Ser-Lys-Leu- (boro)Leu (SSKLL) [Compound 1]”: the Ki is 65 nM.
